This is an account of results in patent US20050222258A1, “Pharmaceuticals comprising shikonins as active constituent” (priority 2003, published 2005).

The target of the assay is HIV-1 reverse transcriptase (Human immunodeficiency virus type 1 group M subtype B, UniProt P04585). The experiment in a line: invitro test resisting HIV-1 reverse transcriptase.

Values after ≈ are worked out from the molar mass of the structure shown.

`O=C(O)P(=O)(O)O` [PFA]: the “IC50, Resisting HIV reverse transcriptase” value came out at 0.097 µg/mL (≈ 0.77 µM).
